Consider two compounds from publication PMC9133036, “Molecular mechanism of the wake-promoting agent TAK-925” (Nature Communications, 2022).

Chains of the proteins cited; added tags and fusions are not shown.
UniProt O43614, whole entry: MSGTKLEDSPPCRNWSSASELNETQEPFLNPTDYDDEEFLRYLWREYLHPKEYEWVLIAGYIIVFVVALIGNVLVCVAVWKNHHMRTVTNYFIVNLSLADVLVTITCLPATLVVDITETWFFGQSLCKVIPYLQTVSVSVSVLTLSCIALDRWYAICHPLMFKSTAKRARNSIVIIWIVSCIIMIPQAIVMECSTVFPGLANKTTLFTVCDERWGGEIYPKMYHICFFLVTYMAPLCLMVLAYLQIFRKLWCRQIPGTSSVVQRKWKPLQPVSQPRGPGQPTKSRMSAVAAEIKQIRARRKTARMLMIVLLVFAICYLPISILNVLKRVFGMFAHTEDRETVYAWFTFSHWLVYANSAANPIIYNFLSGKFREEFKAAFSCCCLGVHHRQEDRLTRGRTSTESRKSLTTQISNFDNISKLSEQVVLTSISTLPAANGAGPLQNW
UniProt O43614, whole entry N324A: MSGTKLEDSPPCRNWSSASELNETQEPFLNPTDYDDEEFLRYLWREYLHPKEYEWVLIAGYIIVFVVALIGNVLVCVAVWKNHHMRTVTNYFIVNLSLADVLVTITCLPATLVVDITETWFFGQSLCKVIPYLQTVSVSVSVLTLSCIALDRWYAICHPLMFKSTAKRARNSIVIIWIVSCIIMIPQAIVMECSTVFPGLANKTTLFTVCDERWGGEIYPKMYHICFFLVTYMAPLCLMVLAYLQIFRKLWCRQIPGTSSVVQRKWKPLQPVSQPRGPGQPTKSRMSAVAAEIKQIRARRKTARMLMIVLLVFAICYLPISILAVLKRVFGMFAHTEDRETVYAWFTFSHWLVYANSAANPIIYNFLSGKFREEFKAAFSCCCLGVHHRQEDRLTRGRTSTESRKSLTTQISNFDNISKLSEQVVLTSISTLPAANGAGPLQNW
UniProt O43614, whole entry T111A: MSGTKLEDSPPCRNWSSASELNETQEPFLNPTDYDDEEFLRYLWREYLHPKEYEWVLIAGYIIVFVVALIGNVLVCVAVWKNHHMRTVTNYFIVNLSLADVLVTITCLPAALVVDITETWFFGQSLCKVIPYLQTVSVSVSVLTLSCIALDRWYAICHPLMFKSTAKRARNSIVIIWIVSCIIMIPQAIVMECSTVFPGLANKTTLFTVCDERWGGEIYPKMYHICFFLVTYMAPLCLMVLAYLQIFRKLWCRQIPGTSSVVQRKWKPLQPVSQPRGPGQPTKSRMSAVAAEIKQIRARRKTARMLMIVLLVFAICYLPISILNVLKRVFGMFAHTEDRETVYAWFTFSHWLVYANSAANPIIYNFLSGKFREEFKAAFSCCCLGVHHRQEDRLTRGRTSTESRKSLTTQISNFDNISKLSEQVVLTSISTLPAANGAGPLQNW

What all share (assay type): cell-based
The target in one test is human OX2R wild type (Homo sapiens, UniProt O43614). In words: β-arrestin PathHunter assay, OX2R WT. Also noted: expressed in transfected cells; host or cells: CHO-K1 stably expressing EA β-arrestin2. Particulars: β-arrestin recruitment. On the technique in general: Activated receptors often draw arrestin, which recruitment assays turn into a signal.
The next test concerns the target T1, OX2R N324A (Homo sapiens, UniProt O43614, N324A).
T1 construct: FLAG; expressed in transfected cells; host or cells: HEK293
In words: IP accumulation assay, OX2R N324A. Particulars: pEC50 ± SEM.

A further test has as its target T2, OX2R T111A (Homo sapiens, UniProt O43614, T111A).
T2 construct: FLAG; expressed in transfected cells; host or cells: HEK293
Briefly: IP accumulation assay, OX2R T111A. Particulars: pEC50 ± SEM.

The term EC50 denotes the midpoint of the concentration-response curve. Low values mean a more potent agent, high ones a less potent agent. As to `COC(=O)N1CCC[C@H](NS(C)(=O)=O)[C@@H]1CO[C@H]1CC[C@@H](c2ccccc2)CC1` [TAK-925, methyl (2R,3S)−3-[(methylsulfonyl)amino]−2-{[(cis−4-phenylcyclohexyl)oxy]methyl}piperidine-1-carboxylate], the midpoint of the response on human OX2R wild type, the EC50, lay at 120 nM. Regarding orexin B, the pEC50 entry at OX2R N324A and on OX2R T111A was “not saturating” each time.
